Reference: PMC3506176 (Nature chemical biology, 2010)

What was measured:
[1] = target: T1, oxytocin receptor (Rattus norvegicus, UniProt P70536); format: binding; settings: mammary gland patches; excess of oxytocin 1 μM
T1 sequence (P70536 1-388): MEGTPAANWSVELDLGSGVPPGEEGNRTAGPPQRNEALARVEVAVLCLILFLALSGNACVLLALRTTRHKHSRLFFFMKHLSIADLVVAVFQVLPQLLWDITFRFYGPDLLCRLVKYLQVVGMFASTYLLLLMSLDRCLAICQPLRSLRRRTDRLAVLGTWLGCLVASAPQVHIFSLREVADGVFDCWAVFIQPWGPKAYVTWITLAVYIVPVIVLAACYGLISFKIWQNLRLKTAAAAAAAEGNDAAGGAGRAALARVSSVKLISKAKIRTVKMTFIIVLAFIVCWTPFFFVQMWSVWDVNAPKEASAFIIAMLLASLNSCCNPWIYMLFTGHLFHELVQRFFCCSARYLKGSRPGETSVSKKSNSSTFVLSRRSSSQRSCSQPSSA

[2] = target: T1, oxytocin receptor; test: Saturation binding with [3H]OT on mammary gland membrane preparation; settings: mammary glands of lactating rats
[3] = target: T1, oxytocin receptor; test: Dissociation kinetics of [3H]OT on native tissue membrane preparation; format: binding
[4] = absence of an excess of oxytocin

| Substance | Effect on the FRET signal between donor and acceptor antagonists [1] | Hill coefficient of saturation experiments [2] | Dissociation, two-phase exponential decay, first phase [3, 4] | Dissociation, two-phase exponential decay, second phase [3, 4] | Dissociation, one-phase exponential decay ([3]; presence of an excess of unlabeled oxytocin (1 μM)) |
| --- | --- | --- | --- | --- | --- |
| oxytocin | decreased |  |  |  |  |
| tritiated oxytocin [[^3H]OT] |  | 0.53 ± 0.01 | 2.7 ± 0.3 min | 71 ± 16 min | 5.48 ± 0.59 min |
